Usually inhibition stands for the share of the control response that was lost under treatment. High values mean a strong effect, low ones a weak effect.

Sequences of proteins named here, by UniProt entry; tags and fusion partners are left off. A change or cut given only in a name is not applied to a line headed by its entry.
UniProt P51449: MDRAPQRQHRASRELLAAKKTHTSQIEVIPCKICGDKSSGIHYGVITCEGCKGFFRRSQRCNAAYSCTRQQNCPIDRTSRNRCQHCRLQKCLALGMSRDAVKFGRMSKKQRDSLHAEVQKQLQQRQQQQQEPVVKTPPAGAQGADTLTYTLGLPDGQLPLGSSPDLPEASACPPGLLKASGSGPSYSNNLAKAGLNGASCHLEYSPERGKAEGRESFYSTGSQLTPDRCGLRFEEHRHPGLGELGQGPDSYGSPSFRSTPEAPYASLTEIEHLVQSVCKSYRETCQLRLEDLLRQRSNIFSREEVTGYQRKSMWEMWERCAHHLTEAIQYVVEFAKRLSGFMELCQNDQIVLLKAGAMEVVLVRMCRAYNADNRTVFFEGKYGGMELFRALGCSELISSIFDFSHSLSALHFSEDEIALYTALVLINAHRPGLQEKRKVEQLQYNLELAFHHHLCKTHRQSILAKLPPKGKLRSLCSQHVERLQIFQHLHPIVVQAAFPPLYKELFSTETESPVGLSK

SMILES strings stand for the structures. Some results are limits rather than exact numbers.

Inhibition data for 2 molecules are collected here from ChEMBL document CHEMBL3580623, “Minor Structural Change to Tertiary Sulfonamide RORc Ligands Led to Opposite Mechanisms of Action” (ACS Med Chem Lett, 2015).

The target of this test is Nuclear receptor ROR-gamma (Homo sapiens, UniProt P51449). As to conditions: 10 uM.

The molecule `CC(=O)N1CCN(c2ccc(CN(C(=O)Cc3ccccc3)C3CCC3)c(F)c2)CC1` gave an inhibition of under 50%.

With `CC(=O)N1CCN(c2ccc(CN(C(=O)c3ccccc3)C3CCC3)c(F)c2)CC1`, the inhibition was under 50%.
